# High-throughput results as filed in PubChem.
# p53 reactivator: mutant p53 re-activation in reporter cells; 0.063% of 320,000 active; H1299 p53-A138V BP100-luciferase reporter, luminescence, 24 h; Potency, µM (series often up to 92.2 µM), usual class: activators; note: nearly all actives have a fitted effect of over 45% in size
#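 H1299 (p53-null), stable ts p53-A138V + BP100-Luc; 1000 cells/well, Opti-MEM/10% FBS; cpd 4 pt, 1:5; 24 h, 37 deg C, 5% CO2; detection reagent 10 min RT; luminescence.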
# A549 tox: A549 cytotoxicity, counter-screen for Nrf2 inhibitors | A549 ARE-Fluc cells, CellTiter-Fluor viability, 18-24 h | Potency, µM (series often up to 46 µM), actives largely listed as inhibitors | 0.16% of 390,000 active | AID 504648
#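 A549 ARE-Fluc cells in 5% FBS OPTI-MEM, 5000 cells/well, rested 2 h then exposed to compounds in concentration-response for 18-24 h at 37 °C. Viability by CellTiter-Fluor fluorescence (Ex 405/Em 525) after 30 min; luciferase luminescence (BugLite, 15 min, RT) read afterwards.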
# Nrf2 ARE act: Nrf2 pathway activation | AREc32 ARE-luciferase reporter (MCF7-derived line), luminescence, 24 h | Potency, µM (doses to about 46.1 µM), usual class: activators | AID 624171 | 0.31% of 410,000 active; note: nearly all actives have a fitted effect of over 65% in size
#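 Luciferase luminescence (Steady-Glo, 30 min at room temperature) served as the read-out of ARE activation in AREc32 cells treated with compounds for 24 hr at 37 deg C.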
# miR-21 FLuc: raises the signal of a miR-21 reporter | HeLa miR-21 FLuc reporter, luciferase, 48 h | Potency, µM (doses to about 38.3 µM) | 340,000 tested, under 10 active | AID 2288; active = well fitted rising curve with a large enough effect; inconclusive = small, poorly fitted or top-dose-only effect; inactive = no such curve, though single readings can be large or run the other way;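 note: miR-21 action dims this reporter so a rising signal means less miR-21 action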
#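 HeLa miR-21-FLuc reporter line, endogenous miR-21; 2000 cells/well in DMEM/10% FBS; compound titration up to ~40uM final, 48 h, 37 degree Celsius; luciferase detection reagent, 15 min lysis, CCD luminescence.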
# ClpP mod: qHTS Assay for Activators of ClpP; ATP-dependent Clp protease proteolytic subunit (Bacillus subtilis (strain 168)), P80244; purified B. subtilis ClpP, FRET peptide cleavage, 20 min; Potency, µM (series often up to 57.5 µM); 1.9% of 340,000 active; AID 651965, 2013; active = well fitted falling curve with a large enough effect; inconclusive = small, poorly fitted or top-dose-only effect; inactive = no such curve, though single readings can be large or run the other way; note: the source files actives as falling curves though it sought activators and does not explain the sign; nearly all actives have a fitted effect of over 65% in size
#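 Buffer: 100 mM Tris/HCl pH8, 100 mM KCl, 0.05% low protease BSA, 2.5% glycerol, 0.01% Tween-20. ClpP 10 microg/mL final; 20 min RT; delta FRET normalized to ADEP and DMSO controls.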
# Nrf2 block: blocks Nrf2 signaling; A549 ARE-Fluc reporter, luciferase luminescence, 18-24 h; Potency, µM (top dose mostly 46 µM), hits mostly inhibitors; 2.1% of 360,000 active; note: nearly all actives have a fitted effect of over 60% in size
#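 Two sequential reads on A549 ARE_Fluc cells exposed to compound for 18-24 h: a CellTiter-Fluor fluorescence read for viability, then a luciferase luminescence read for Nrf2/ARE activity.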
# Numbers stand for hits; 0 = inactive; ? = inconclusive; - = no result; [ ] = dose if it differs, or a comment. Only some compounds are listed: those with a hit (about 3.7% of all), similar ones and a draw of the others. Unless noted, calls come from the whole dose curve; as a rule, active = well fitted curve in the direction sought with a large enough effect; inconclusive = small, poorly fitted or top-dose-only effect, or another doubt; inactive = no such curve, though single readings can be large; an effect the other way counts as inactive or inconclusive.
SMILES,p53 reactivator,A549 tox,Nrf2 ARE act,miR-21 FLuc,ClpP mod,Nrf2 block
COC(=O)c1cc(NS(=O)(=O)c2ccc(NCc3cccnc3)c(N)c2)cc(C(=O)OC)c1,0,0,0[9.22 µM],0,0,0
OCCNC1=NCCN1,0,0,0,0,31.6µM,-
Fc1ccc(Sc2ccccc2CNC2=NCCN2)cc1,0,0,0,0,0,0
O=C(NCC1CC1)C1(S(=O)(=O)c2ccccc2)CC=CC1,-,0,0,0,0,0
Cc1cc(=O)n(C(C)C(=O)N2CCCc3ccccc32)c2c1c(C)nn2-c1ccccc1 (stereo not given),-,?,0,?,0,18.4µM
O=C1NC(=O)/C(=C/c2ccco2)N1,?,0,0,-,-,0
O=C1NC(c2ccccc2)=N/C1=C/c1ccco1,?,0,3.98µM,0,-,?
O=C1NC(c2cccc(Br)c2)=N/C1=C\c1ccco1,?,0,8.91µM,0,0,?
O=C1NC(c2ccccc2Br)=N/C1=C\c1ccco1,0,0,5.62µM,0,0,0
CCS(=O)(=O)N1CC(=O)N(c2cccc(C)c2C)C(C)(C(=O)NC2CCCCC2)C1 (stereo not given),-,0,0,0,0,?
COC(=O)C1CCN(c2csc3ccc(C)cc3c2=O)CC1,-,0,0,0,0,-
c1ccc(-n2nc3c(ccc4cnnc43)[nH]2)cc1,?,0,0,0,11.2µM,?
CCN1CCN(S(=O)(=O)c2cc(OCC(=O)NC3CCCCC3)c(C)cc2Cl)CC1,0,0,0,0,0,4.11µM
Cc1cc(C)nc(-n2nc(C)c3c2N(Cc2ccccc2)C(=O)CC3c2ccc(Cl)cc2)n1 (stereo not given),-,0,0,0,0,0
CCOc1ccc(NC(=O)c2ccc(OC)cc2)cc1,?,0,0,0,0,?
CCOc1ncccc1C(=O)NNC(=O)c1ccc(NS(=O)(=O)c2cccs2)cc1,0,0,2.51µM,-,?,0
O=C(NNC(=O)c1ccccc1[N+](=O)[O-])c1ccc(NS(=O)(=O)c2cccs2)cc1,0,0,0,0,0,0
CCOc1ncccc1C(=O)Nc1ccc(C(=O)Nc2ccc(OC)cc2)cc1,0,0,0,-,0,8.2µM
COc1cccc(Nc2ncccc2C(=O)Nc2ccccc2)c1,0,?,0,0,0,20.6µM
O=C1CS(=O)(=O)C2(C(=O)N(Cc3ccccc3Cl)c3ccccc32)N1c1ccc(F)cc1 (stereo not given),-,0,0,0,0,?
COc1ccccc1N1CCN(C(=O)c2cc(CC(C)C)on2)CC1,-,0,0,0,0,0
COc1ccc(N2CC(NC(=O)c3ccc(S(=O)(=O)N4CCCCC4)cc3)CC2=O)cc1OC (stereo not given),-,0,0,0,0,-
COc1ccc(-c2noc(CN(C(=O)C(C)Oc3ccc(C)cc3)C(C)C)n2)cc1 (stereo not given),-,0,0,0,0,?
Cc1cc(C)n2ncc(C(=O)NCCc3ccccc3)c2n1,-,0,0,0,28.2µM,0
Cc1cc(C)n2nc(C(=O)NCc3ccccc3)cc2n1,0,0,0,0,25.1µM,0
SMILES,p53 reactivator,A549 tox,Nrf2 ARE act,miR-21 FLuc,ClpP mod,Nrf2 block
CCOC(=O)C1CCN(C(=O)c2cnn3c(C)cc(C)nc23)CC1,0,0,0,0,31.6µM,0
Cc1cc(C)n2nc(C(=O)NCc3ccccc3)nc2n1,0,0,0,0,0,0
Cc1cc(C)n2nc(-c3ccccc3)cc2n1,0,0,8.91µM,0,-,?
Cc1cc(C(F)F)n2ncc(C(=O)NCCc3ccc(Cl)cc3)c2n1,0,0,0,0,0,0
Cc1ccc(-c2cc3nc(C)cc(C)n3n2)cc1,?,0,?,0,-,?
Cc1cc(C)n2ncc(C(=O)NCc3ccccc3)c2n1,0,0,0,0,28.2µM,0
COc1cc(C2CC(=O)N(Cc3cccc(F)c3)c3ccccc3S2)cc(OC)c1OC (stereo not given),-,?,0,?,0,?
Cc1cc(C)cc(OCC(=O)N2N=C(C(F)(F)F)CC2(O)C(C)(C)C)c1 (stereo not given),0,0,0,0,0,0
CCCCC1(O)CC(C(F)(F)F)=NN1C(=O)COc1ccccc1 (stereo not given),0,?,0,0,0,16.4µM
CN1CCN(CCC(=O)Nc2ccc3c(c2)OCO3)CC1,0,0,0,0,0,0
O=C(CCN1CCCCC1)c1ccc2c(c1)OCCO2,0,0,17.8µM,0,0,0
O=C(CCN1CCCCCC1)Nc1ccc2c(c1)OCCO2,0,0,0,0,14.1µM,0
O=C(CCN1CCc2ccccc2C1)c1ccc2c(c1)OCCO2,0,-,0,?,0,0
O=C(CCN1CCC(c2ccccc2)C1)c1ccc2c(c1)OCCO2 (stereo not given),0,0,8.91µM,?,0,0
Cc1cc(C)cc(NC(=O)CSc2nc(=O)[nH]c3c2CCC3)c1,-,0,0,?,0,-
COc1ccc(CNC(=O)c2c(C)oc3c2C(=O)c2ccccc2C3=O)cc1,0,4.61µM,0,0,0,4.11µM
Cc1oc2c(c1C(=O)NCc1cccnc1)C(=O)c1ccccc1C2=O,0,2.59µM,0,?,0,5.17µM
COc1ccc(SCc2cc(=O)c3cc(Cl)ccc3[nH]2)cc1,-,0,0,0,0,-
Cc1ccc(S(=O)(=O)Oc2ccc(/C=N/NC(=O)c3nn(C)cc3Cl)cc2)cc1,0,0,0,0,0,18.4µM
CSCCOC(=O)COc1ccc(/C=N/NC(=O)c2nn(C)cc2Cl)cc1,0,0,0,0,0,0
O=C(Nc1cc(C(F)(F)F)ccc1Cl)c1noc2c1CCCCC2,-,0,0,0,0,0
CC1=C(C(=O)N2CCOCC2)C(c2ccccc2F)NC(=O)N1 (stereo not given),0,0,0,0,-,0
COc1ccc(C2C(C(=O)N3CCOCC3)=C(C)NC3=C2C(=O)CC(C)(C)C3)c(OC)c1 (stereo not given),0,-,0,0,15.8µM,0
CC1=C(C(=O)N2CCOCC2)C(c2ccccc2F)C2=C(CC(C)(C)CC2=O)N1 (stereo not given),0,0,0,0,14.1µM,0
COc1ccc(C2C(C#N)=C(C)NC3=C2C(=O)CC(C)(C)C3)c(OC)c1 (stereo not given),0,0,0,0,?,0
CCn1cc(C(=O)OCC(=O)N2C(C)CCCC2C)c(=O)c2ccc(C)nc21 (stereo not given),0,0,0,0,15.8µM,0
COC(=O)c1ccccc1NC(=S)NC(=O)COc1ccc(C(C)C)cc1,0,0,0,0,0,0
